Laboratory results published in patent US10196396B2 (priority 2016, dated 2019).

The chains behind the UniProt entries cited, without tags or fusion partners.
UniProt P30542, whole entry: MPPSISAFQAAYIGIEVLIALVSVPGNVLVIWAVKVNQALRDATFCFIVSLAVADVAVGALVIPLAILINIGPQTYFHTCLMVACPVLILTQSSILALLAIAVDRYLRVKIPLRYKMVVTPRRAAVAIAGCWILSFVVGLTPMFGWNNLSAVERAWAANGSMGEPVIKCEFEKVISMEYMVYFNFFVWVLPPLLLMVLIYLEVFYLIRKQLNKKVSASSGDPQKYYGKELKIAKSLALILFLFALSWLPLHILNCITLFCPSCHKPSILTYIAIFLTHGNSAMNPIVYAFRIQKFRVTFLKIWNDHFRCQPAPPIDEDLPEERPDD
UniProt P0DMS8, whole entry: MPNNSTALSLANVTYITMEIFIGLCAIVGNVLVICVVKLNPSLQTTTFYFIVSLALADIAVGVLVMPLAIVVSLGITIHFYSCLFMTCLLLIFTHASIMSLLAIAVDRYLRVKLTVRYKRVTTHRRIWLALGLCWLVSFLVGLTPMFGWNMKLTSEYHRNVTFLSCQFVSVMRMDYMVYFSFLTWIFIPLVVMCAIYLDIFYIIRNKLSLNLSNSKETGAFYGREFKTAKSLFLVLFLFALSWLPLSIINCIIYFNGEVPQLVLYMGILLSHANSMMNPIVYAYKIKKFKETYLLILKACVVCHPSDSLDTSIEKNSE

Tests used:
[1] = molecular target: human A1 adenosine receptor (Homo sapiens (Human), UniProt P30542); test: biochemical
[2] = molecular target: human A3 adenosine receptor (Homo sapiens (Human), UniProt P0DMS8); test: biochemical
[3] = molecular target: human A2a adenosine receptor (Homo sapiens (Human), UniProt P29274); test: biochemical
human A3 receptor = human A3 receptor (Homo sapiens (Human), UniProt P0DMS8); test: cell-based

Row | SMILES | Ki [1] [nM] | Ki [2] [nM] | Ki [3] [nM] | IC50 (human A3 receptor) [nM]
1 | Cc1cnc(-c2ccc(CNc3nccn4c([C@@H]5SC[C@@H](O)[C@H]5O)nnc34)cc2F)o1 [Compound 93, (2S,3R,4S)-2-(8-((3-fluoro-4-(5-methyloxazol-2-yl)benzyl)amino)-[1,2,4]triazolo[4,3-a]pyrazin-3-yl)tetrahydrothiophene-3,4-diol] | > 10000 | 1000 to 10000 | > 10000 | 
2 | O[C@@H]1[C@H](O)CS[C@H]1c1cnc2c(NCc3cccc(N4CCOCC4)c3)nccn12 [Compound 210, (2S,3R,4S)-2-(8-((3-morpholinobenzyl)amino)imidazo[1,2-a]pyrazin-3-yl)tetrahydrothiophene-3,4-diol] | > 10000 | 10 to 100 | 1000 to 10000 | 10 to 100
3 | Cc1cnc(-c2ccc(CNc3nccn4c([C@@H]5SC[C@@H](O)[C@H]5O)cnc34)cc2F)o1 [Compound 211, (2S,3R,4S)-2-(8-((3-fluoro-4-(5-methyloxazol-2-yl)benzyl)amino)imidazo[1,2-a]pyrazin-3-yl)tetrahydrothiophene-3,4-diol] | > 10000 | 100 to 1000 | > 10000 | 10 to 100
4 | Cc1cnc(-c2ccc(CNc3nccn4c([C@@H]5SC[C@@H](O)[C@H]5O)cnc34)cc2F)s1 [Compound 212, (2S,3R,4S)-2-(8-((3-fluoro-4-(5-methylthiazol-2-yl)benzyl)amino)imidazo[1,2-a]pyrazin-3-yl)tetrahydrothiophene-3,4-diol] | > 10000 |  | > 10000 | > 10000
5 | Cc1nnc(-c2ccc(CNc3nccn4c([C@@H]5SC[C@@H](O)[C@H]5O)cnc34)cc2F)o1 [Compound 213, (2S,3R,4S)-2-(8-((3-fluoro-4-(5-methyl-1,3,4-oxadiazol-2-yl)benzyl)amino)imidazo[1,2-a]pyrazin-3-yl)tetrahydrothiophene-3,4-diol] | > 10000 | 100 to 1000 | > 10000 | 10 to 100
6 | Cn1nnc(-c2cccc(CNc3nccn4c([C@@H]5SC[C@@H](O)[C@H]5O)cnc34)c2)n1 [Compound 214, (2S,3R,4S)-2-(8-((3-(2-methyl-2H-tetrazol-5-yl)benzyl)amino)imidazo[1,2-a]pyrazin-3-yl)tetrahydrothiophene-3,4-diol] | > 10000 | 100 to 1000 | > 10000 | < 10
7 | O[C@@H]1[C@H](O)CS[C@H]1c1ncc2c(NCc3cccc(Cl)c3)nccn12 [Compound 219, (2S,3R,4S)-2-(8-((3-chlorobenzyl)amino)imidazo[1,5-a]pyrazin-3-yl)tetrahydrothiophene-3,4-diol] |  |  |  | > 10000
8 | O[C@@H]1[C@H](O)CS[C@H]1c1cnc2c(NCc3cccc(Cl)c3)cc(Cl)cn12 [Compound 220, (2S,3R,4S)-2-(6-chloro-8-((3-chlorobenzyl)amino)imidazo[1,2-a]pyridin-3-yl)tetrahydrothiophene-3,4-diol] |  |  |  | > 10000
9 | O[C@@H]1[C@H](O)CS[C@H]1c1cnc2c(NCc3cccc(Cl)c3)cccn12 [Compound 221, (2S,3R,4S)-2-(8-((3-chlorobenzyl)amino)imidazo[1,2-a]pyridin-3-yl)tetrahydrothiophene-3,4-diol] |  |  |  | > 10000
10 | O[C@@H]1[C@H](O)CC[C@H]1c1cnc2c(NCc3cccc(Cl)c3)nccn12 [Compound 222, (1R,2S,3S)-3-(8-((3-chlorobenzyl)amino)imidazo[1,2-a]pyrazin-3-yl)cyclopentane-1,2-diol] |  |  |  | 10 to 100
11 | O[C@@H]1[C@H](O)CC[C@H]1c1cnc2c(NCc3cc(Cl)cc(Cl)c3)nccn12 [Compound 223, (1R,2S,3S)-3-(8-((3,5-dichlorobenzyl)amino)imidazo[1,2-a]pyrazin-3-yl)cyclopentane-1,2-diol] |  |  |  | 10 to 100
12 | O[C@@H]1[C@H](O)CC[C@H]1c1cnc2c(NCc3cc(Cl)ccc3Cl)nccn12 [Compound 224, (1R,2S,3S)-3-(8-((2,5-dichlorobenzyl)amino)imidazo[1,2-a]pyrazin-3-yl)cyclopentane-1,2-diol] |  |  |  | 10 to 100
13 | O[C@@H]1[C@H](O)CC[C@H]1c1cnc2c(NCc3cc(Cl)ccc3F)nccn12 [Compound 225, (1R,2S,3S)-3-(8-((5-chloro-2-fluorobenzyl)amino)imidazo[1,2-a]pyrazin-3-yl)cyclopentane-1,2-diol] |  |  |  | 10 to 100
14 | O[C@@H]1[C@H](O)CC[C@H]1c1cnc2c(NCCc3ccc(F)cc3)nccn12 [Compound 226, (1R,2S,3S)-3-(8-((4-fluorophenethyl)amino)imidazo[1,2-a]pyrazin-3-yl)cyclopentane-1,2-diol] |  |  |  | 10 to 100
15 | O[C@@H]1[C@H](O)CC[C@H]1c1cnc2c(NCCc3cccc(F)c3)nccn12 [Compound 227, (1R,2S,3S)-3-(8-((3-fluorophenethyl)amino)imidazo[1,2-a]pyrazin-3-yl)cyclopentane-1,2-diol] |  |  |  | > 10000
16 | O[C@@H]1[C@H](O)CC[C@H]1c1cnc2c(NCCc3ccc(F)c(F)c3)nccn12 [Compound 228, (1R,2S,3S)-3-(8-((3,4-difluorophenethyl)amino)imidazo[1,2-a]pyrazin-3-yl)cyclopentane-1,2-diol] |  |  |  | 10 to 100
17 | O[C@@H]1[C@H](O)CC[C@H]1c1cnc2c(NCCc3ccc(F)c(Cl)c3)nccn12 [Compound 229, (1R,2S,3S)-3-(8-((3-chloro-4-fluorophenethyl)amino)imidazo[1,2-a]pyrazin-3-yl)cyclopentane-1,2-diol] |  |  |  | 10 to 100
18 | O[C@@H]1[C@H](O)CC[C@H]1c1cnc2c(N[C@H]3C[C@@H]3c3ccccc3)nccn12 [Compound 230, (1R,2S,3S)-3-(8-(((1S,2R)-2-phenylcyclopropyl)amino)imidazo[1,2-a]pyrazin-3-yl)cyclopentane-1,2-diol] |  |  |  | 10 to 100
19 | O[C@@H]1[C@H](O)CC[C@H]1c1cnc2c(NCCc3ccc(Cl)c(F)c3)nccn12 [Compound 231, (1R,2S,3S)-3-(8-((4-chloro-3-fluorophenethyl)amino)imidazo[1,2-a]pyrazin-3-yl)cyclopentane-1,2-diol] |  |  |  | 10 to 100
20 | O[C@@H]1[C@H](O)CC[C@H]1c1nnc2c(NCc3cccc(Cl)c3)nccn12 [Compound 232, (1R,2S,3 S)-3-(8-((3-chlorobenzyl)amino)-[1,2,4]triazolo[4,3-a]pyrazin-3-yl)cyclopentane-1,2-diol] |  |  |  | > 10000
21 | O[C@@H]1[C@H](O)CC[C@H]1c1nnc2c(NCc3cc(Cl)cc(Cl)c3)nccn12 [Compound 233, (1R,2S,3S)-3-(8-((3,5-dichlorobenzyl)amino)-[1,2,4]triazolo[4,3-a]pyrazin-3-yl)cyclopentane-1,2-diol] |  |  |  | 10 to 100
22 | O[C@@H]1[C@H](O)CC[C@H]1c1nnc2c(NCc3cc(Cl)ccc3Cl)nccn12 [Compound 234, (1R,2S,3S)-3-(8-((2,5-dichlorobenzyl)amino)-[1,2,4]triazolo[4,3-a]pyrazin-3-yl)cyclopentane-1,2-diol] |  |  |  | 10 to 100
23 | O[C@@H]1[C@H](O)CC[C@H]1c1nnc2c(NCc3cc(Cl)ccc3F)nccn12 [Compound 235, (1R,2S,3S)-3-(8-((5-chloro-2-fluorobenzyl)amino)-[1,2,4]triazolo[4,3-a]pyrazin-3-yl)cyclopentane-1,2-diol] |  |  |  | 10 to 100
24 | O[C@@H]1[C@H](O)CC[C@H]1c1nnc2c(NCCc3ccc(F)cc3)nccn12 [Compound 236, (1R,2S,3S)-3-(8-((4-fluorophenethyl)amino)-[1,2,4]triazolo[4,3-a]pyrazin-3-yl)cyclopentane-1,2-diol] |  |  |  | 10 to 100
25 | O[C@@H]1[C@H](O)CC[C@H]1c1nnc2c(NCCc3cccc(F)c3)nccn12 [Compound 237, (1R,2S,3S)-3-(8-((3-fluorophenethyl)amino)-[1,2,4]triazolo[4,3-a]pyrazin-3-yl)cyclopentane-1,2-diol] |  |  |  | 10 to 100
26 | O[C@@H]1[C@H](O)CC[C@H]1c1nnc2c(N[C@H]3C[C@@H]3c3ccccc3)nccn12 [Compound 240, (1R,2S,3S)-3-(8-(((1S,2R)-2-phenylcyclopropyl)amino)-[1,2,4]triazolo[4,3-a]pyrazin-3-yl)cyclo pentane-1,2-diol] |  |  |  | 10 to 100
27 | O[C@@H]1[C@H](O)CC[C@H]1c1nnc2c(NCCc3ccc(Cl)c(F)c3)nccn12 [Compound 241, (1R,2S,3S)-3-(8-((4-chloro-3-fluorophenethyl)amino)-[1,2,4]triazolo[4,3-a]pyrazin-3-yl)cyclopentane-1,2-diol] |  |  |  | 10 to 100
